Patent US20200079766A1, “MONOCYCLIC OGA INHIBITOR COMPOUNDS” (Janssen Pharmaceutica NV, priority 2016, published 2020)

Chains of the proteins cited; added tags and fusions are not shown.
UniProt O60502, whole entry: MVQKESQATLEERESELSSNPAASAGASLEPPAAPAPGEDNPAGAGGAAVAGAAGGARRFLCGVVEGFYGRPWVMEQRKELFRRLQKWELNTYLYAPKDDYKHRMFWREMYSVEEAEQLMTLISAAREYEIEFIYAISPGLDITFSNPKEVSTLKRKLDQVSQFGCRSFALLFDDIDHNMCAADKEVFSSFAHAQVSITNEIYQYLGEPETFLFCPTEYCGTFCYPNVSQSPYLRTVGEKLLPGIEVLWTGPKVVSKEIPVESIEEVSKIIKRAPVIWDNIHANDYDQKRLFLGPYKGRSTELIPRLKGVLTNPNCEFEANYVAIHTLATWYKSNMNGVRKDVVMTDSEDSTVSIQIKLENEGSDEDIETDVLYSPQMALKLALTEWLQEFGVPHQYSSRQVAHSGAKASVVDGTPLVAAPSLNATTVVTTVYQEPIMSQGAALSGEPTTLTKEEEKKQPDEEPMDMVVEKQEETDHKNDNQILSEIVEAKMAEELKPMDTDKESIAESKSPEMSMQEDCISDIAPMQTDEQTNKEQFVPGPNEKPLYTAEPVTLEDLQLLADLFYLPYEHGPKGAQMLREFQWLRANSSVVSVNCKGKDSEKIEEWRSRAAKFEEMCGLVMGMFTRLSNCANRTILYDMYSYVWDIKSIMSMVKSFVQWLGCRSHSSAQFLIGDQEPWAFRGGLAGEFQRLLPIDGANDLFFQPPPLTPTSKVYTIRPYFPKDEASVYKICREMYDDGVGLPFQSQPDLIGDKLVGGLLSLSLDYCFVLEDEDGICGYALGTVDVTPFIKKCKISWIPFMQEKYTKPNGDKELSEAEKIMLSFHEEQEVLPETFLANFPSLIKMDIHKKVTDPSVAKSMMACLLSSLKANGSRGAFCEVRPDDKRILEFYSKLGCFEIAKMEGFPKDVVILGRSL

Legend:
[1] = biological target: recombinant human Meningioma Expressed Antigen 5 (MGEA5), also referred to as O-GlcNAcase (OGA) (Homo sapiens, UniProt O60502); test: OGA biochemical assay: inhibition of FM-GlcNAc hydrolysis, fluorescence; protocol A (10 nM OGA, 1 h) or protocol B (2 nM OGA, 6 h); conditions: Enzymatic protocol B (2 nM OGA, 6 h)
From the text: The assay is based on the inhibition of the hydrolysis of fluorescein mono-3-D-N-Acetyl-Glucosamine (FM-GlcNAc) (Mariappa et al. 2015, Biochem J 470:255) by the recombinant human Meningioma Expressed Antigen 5 (MGEA5), also referred to as O-GlcNAcase (OGA). The hydrolysis FM-GlcNAc (Marker Gene technologies, cat # M1485) results in the formation of ß-D-N-glucosamineacetate and fluorescein. The fluorescence of the latter can be measured at excitation wavelength 485 nm and emission wavelength 538 nm. An increase in enzyme activity results in an increase in fluorescence signal. Full length OGA enzyme was purchased at OriGene (cat # TP322411). The enzyme was stored in 25 mM Tris.HCl, pH 7.3, 100 mM glycine, 10% glycerol at −20° C. Thiamet G and GlcNAcStatin were tested as reference compounds (Yuzwa et al. 2008 Nature Chemical Biology 4:483; Yuzwa et al. 2012 Nature Chemical Biology 8:393). The assay was performed in 200 mM Citrate/phosphate buffer supplemented with 0.005% Tween-20. 35.6 g Na2HPO42H2O (Sigma, # C0759) were dissolved in 1 L water to obtain a 200 mM solution. 19.2 g citric acid (Merck, #1.06580) was dissolved in 1 L water to obtain a 100 mM solution. pH of the sodiumphosphate solution was adjusted with the citric acid solution to 7.2. The buffer to stop the reaction consists of a 500 mM Carbonate buffer, pH 11.0. 734 mg
FM-GlcNAc were dissolved in 5.48 mL DMSO to obtain a 250 mM solution and was stored at −20° C. OGA was used at a 10 nM (protocol A) or 2 nM (protocol B) concentration and FM-GlcNAc at a 100 uM final concentration. Dilutions were prepared in assay buffer.
50 nl of a compound dissolved in DMSO was dispensed on Black Proxiplate™ 384 Plus Assay plates (Perkin Elmer, #6008269) and 3 μl fl-OGA enzyme mix added subsequently. Plates were pre-incubated for 60 min at room temperature and then 2 μl FM-GlcNAc substrate mix added. […] Plates were briefly centrifuged for 1 min at 1000 rpm and incubate at room temperature for 1 h (10 nM OGA, protocol A) or 6 h (2 nM OGA, protocol B). To stop the reaction 5 μl STOP buffer were added and plates centrifuge again 1 min at 1000 rpm. Fluorescence was quantified in the Thermo Scientific Fluoroskan Ascent or the PerkinElmer EnVision with excitation wavelength 485 nm and emission wavelength 538 nm.
For analysis a best-fit curve is fitted by a minimum sum of squares method. From this an IC50 value and Hill coefficient was obtained. High control (no inhibitor) and low control (saturating concentrations of standard inhibitor) were used to define the minimum and maximum values.

[2] = tested on: OGA in HEK293 cells inducible for P301L mutant human Tau (isoform 2N4R); test: OGA cellular assay: immunocytochemical detection of O-GlcNAcylated proteins (CTD110.6 antibody) after 6 h incubation; conditions: for Cellular Emax (%): maximum = Thiamet G 200 uM
Description: HEK293 cells inducible for P301L mutant human Tau (isoform 2N4R) were established at Janssen. Thiamet-G was used for both plate validation (high control) and as reference compound (reference EC50 assay validation). OGA inhibition is evaluated through the immunocytochemical (ICC) detection of O-GlcNAcylated proteins by the use of a monoclonal antibody (CTD110.6; Cell Signaling, #9875) detecting O-GlcNAcylated residues as previoulsy described (Dorfmueller et al. 2010 Chemistry & biology, 17:1250). Inhibition of OGA will result in an increase of O-GlcNAcylated protein levels resulting in an increased signal in the experiment. Cell nuclei are stained with Hoechst to give a cell culture quality control and a rough estimate of immediate compounds toxicity, if any. ICC pictures are imaged with a Perkin Elmer Opera Phenix plate microscope and quantified with the provided software Perkin Elmer Harmony 4.1.
Cells were propagated in DMEM high Glucose (Sigma, # D5796) following standard procedures. 2 days before the cell assay cells are split, counted and seeded in Poly-D-Lysine (PDL) coated 96-wells (Greiner, #655946) plate at a cell density of 12,000 cells per cm^2 (4,000 cells per well) in 100 μl of Assay Medium (Low Glucose medium is used to reduce basal levels of GlcNAcylation) (Park et al. 2014 The Journal of biological chemistry 289:13519). At the day of compound test medium from assay plates was removed and replenished with 90 μl of fresh Assay Medium. 10 μl of compounds at a 10 fold final concentration were added to the wells. Plates were centrifuged shortly before incubation in the cell incubator for 6 hours. DMSO concentration was set to 0.2%. Medium is discarded by applying vacuum. For staining of cells medium was removed and cells washed once with 100 μl D-PBS (Sigma, # D8537). From next step onwards unless other stated assay volume was always 50 μl and incubation was performed without agitation and at room temperature. Cells were fixed in 50 μl of a 4% paraformaldehyde (PFA, Alpha aesar, #043368) PBS solution for 15 minutes at room temperature. […] Before analysis samples were washed 2 times manually for 5 minutes in ICC base buffer.
Imaging is performed using Perkin Elmer Phenix Opera using a water 20× objective and recording 9 fields per well. Intensity readout at 488 nm is used as a measure of O-GlcNAcylation level of total proteins in wells. To assess potential toxicity of compounds nuclei were counted using the Hoechst staining. IC50-values are calculated using parametric non-linear regression model fitting. As a maximum inhibition Thiamet G at a 200 uM concentration is present on each plate. In addition, a concentration response of Thiamet G is calculated on each plate.

| Enzymatic Emax (%) ([1]; tested form: dihydrochloride) | Enzymatic hOGA; pIC50 ([1]; tested form: dihydrochloride) | Enzymatic Emax (%) [1] [%] | Enzymatic hOGA; pIC50 [1] | SMILES | Cellular hOGA; pEC50 [2] | Cellular Emax (%) [2] [%] |
| --- | --- | --- | --- | --- | --- | --- |
| 26 | <5 |  |  | Cc1cc(C[C@H]2CCN(Cc3nc4ccccc4n3C)C2)cc(C)n1 |  |  |
| 11.7 | <5 |  |  | Cc1cc(C[C@H]2CCN(Cc3cc4ccccc4n3C)C2)cc(C)n1 |  |  |
|  |  | 101.7 | 8.32 | CC(=O)Nc1ncc(CN2CC[C@H](Cc3nc(C)cnc3C)C2)s1 | 7.22 | 108.9 |
|  |  | 102.1 | 8.36 | CC(=O)Nc1ncc(CN2CCC[C@H](COc3cc(C)nc(C)c3)C2)s1 | 8.61 | 103.6 |
